For three substances, mean response and mean normalised absorbance (% of wild-type reference) results are on record in PMC8691596.

Chains of the proteins cited; added tags and fusions are not shown. Where a name states a change or a piece, a line headed by the entry shows the natural chain unless it says otherwise. A line that says so, or that is headed by a name, gives the form on record, which may keep a tag or linker.
UniProt O75015: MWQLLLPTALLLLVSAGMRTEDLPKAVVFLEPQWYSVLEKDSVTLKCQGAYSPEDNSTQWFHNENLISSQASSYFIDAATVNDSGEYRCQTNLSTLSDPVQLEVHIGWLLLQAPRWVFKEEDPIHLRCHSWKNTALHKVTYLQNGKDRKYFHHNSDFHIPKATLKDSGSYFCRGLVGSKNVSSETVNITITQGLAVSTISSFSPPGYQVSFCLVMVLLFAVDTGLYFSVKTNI
anti-CD20 IgG1 L234G/L235S/G236R (human), light, as listed by the source, chain 2 of 2: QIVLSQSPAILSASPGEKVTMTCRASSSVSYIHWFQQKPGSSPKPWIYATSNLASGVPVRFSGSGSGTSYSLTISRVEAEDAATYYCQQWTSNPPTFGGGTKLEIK
anti-CD20 IgG1 L234G/L235S/G236R (human), heavy, as listed by the source, chain 1 of 2: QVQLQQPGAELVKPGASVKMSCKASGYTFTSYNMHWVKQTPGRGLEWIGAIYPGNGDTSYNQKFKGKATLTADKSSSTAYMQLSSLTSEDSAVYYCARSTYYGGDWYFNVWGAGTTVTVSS
anti-CD52 (alemtuzumab variable regions) human IgG1 wild type reference (human), heavy, as listed by the source, chain 1 of 2: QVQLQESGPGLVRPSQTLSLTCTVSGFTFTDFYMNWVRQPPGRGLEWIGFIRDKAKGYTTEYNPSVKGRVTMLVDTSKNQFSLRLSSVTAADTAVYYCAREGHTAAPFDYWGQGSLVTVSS
anti-CD52 (alemtuzumab variable regions) human IgG1 wild type reference (human), light, as listed by the source, chain 2 of 2: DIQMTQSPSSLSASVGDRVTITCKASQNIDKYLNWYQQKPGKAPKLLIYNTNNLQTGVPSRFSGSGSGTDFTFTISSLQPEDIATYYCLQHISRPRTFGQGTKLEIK
anti-CD3 IgG1 L234T/L235T/G236R (human), light, as listed by the source, chain 2 of 2: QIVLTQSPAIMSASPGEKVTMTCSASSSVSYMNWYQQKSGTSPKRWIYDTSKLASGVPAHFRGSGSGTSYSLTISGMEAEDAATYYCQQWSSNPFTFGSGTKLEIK

The target of assay [1] is human FcγRIIIb (CD16b) NA2 allele, histidine-tagged recombinant (human) (UniProt O75015). Kind of assay: SPR; His-tagged Fc receptor captured by anti-histidine antibody immobilised on CM5; antibody injected at 100 μg/mL for 1 min; response about 5 s before end of injection, blank subtracted; 25°C, HBS-EP+; Biacore T200. In general terms: SPR reads the build-up and loss of mass on a sensor chip optically.

Assay [2] addresses rat FcγRI (CD64), histidine-tagged recombinant (rat). The description is as above.
Assay [3] addresses human FcγRIIIa (CD16a) V158 allele, histidine-tagged recombinant (human) (UniProt P08637). The description is as above.
The target of assay [4] is human FcγRIIIa (CD16a) F158 allele, histidine-tagged recombinant (human) (UniProt P08637). The description is as above.
Assay [5] addresses anti-CD3 IgG1 L234T/L235T/G236R (human). Kind of assay: ELISA; antibody coated at 10 μg/mL on Maxisorp plates; HRP-labelled C1q at 100 ng/mL; room temperature.
Assay [6] addresses anti-CD20 IgG1 L234G/L235S/G236R (human). The description is as above.
The target of assay [7] is anti-CD20 IgG1 L234T/L235Q/G236R (human). Described as above.
Assay [8] concerns the target anti-CD52 (alemtuzumab variable regions) human IgG1 wild type reference (human). The description is as above.
Assay [9] concerns the target anti-CD20 IgG1 L234A/L235A/P329G (LALAPG) (human). The description is as above.
The target of assay [10] is anti-CD3 IgG1 L234A/L235A (LALA) (human). Described as above.
The target in assay [11] is anti-CD20 (rituximab variable regions) human IgG1 wild type reference (human). The assay is described as above.
Assay [12] addresses anti-CD3 IgG1 N297Q (aglycosyl) (human). Described as above.
Assay [13] concerns the target anti-CD20 IgG1 L234S/L235V/G236R (human). The description is as above.
Assay [14] addresses anti-CD3 IgG1 L234T/L235Q/G236R (human). The description is as above.
In assay [15] the target is anti-CD3 IgG1 L234G/L235S/G236R (human). Described as above.
Assay [16] addresses anti-CD20 IgG1 L234T/L235T/G236R (human). The assay is described as above.
Assay [17] addresses anti-CD3 (muromonab variable regions) human IgG1 wild type reference (human). Described as above.
The target of assay [18] is anti-CD3 IgG1 L234S/L235T/G236R (human). The description is as above.
Assay [19] addresses anti-CD3 IgG1 L234A/L235A/P329G (LALAPG) (human). The description is as above.
The target of assay [20] is anti-CD3 IgG1 L234S/L235V/G236R (human). The description is as above.
Assay [21] deals with anti-CD20 IgG1 L234S/L235T/G236R (human). The assay is described as above.

As for “anti-CD3 (muromonab variable regions) human IgG1 wild type reference (antibody)”, the mean response in assay [1] amounted to 145 RU; in assay [2], 790 RU; in [3] it was 692 RU.
In the case of “anti-CD3 (muromonab variable regions) human IgG1 wild type reference (antibody; other documents disagree on this pair)”, the mean response in assay [4] came to 260 RU.
For the substance “human C1q, HRP-labelled (from UniProt P02745 23-245; P02746 28-253; P02747 29-245) (complex)”, the mean normalised absorbance (% of wild-type reference) came to 8.6% in [5]; 3.2% in assay [6]; 4.2% in [7]; 100% in assay [8]; 4.5% in assay [9]; 9.3% in [10]. Also, the mean normalised absorbance (% of wild-type reference) in [11] was determined as 100%; in assay [12] it was 9.3%; in assay [13], 4%; in assay [14] it was 8.3%; in assay [15], 9.1%; in [16] it was 3.7%. Besides, the mean normalised absorbance (% of wild-type reference) in assay [17] turned out to be 100%; in assay [18] it was 8.4%; in [19], 8.5%; in assay [20], 7.9%; in [21], 3.3%.
